For one compound, Activity results are on record in ChEMBL document CHEMBL1250451, “Mechanistic insights into a Ca2+-dependent family of alpha-mannosidases in a human gut symbiont” (Nat Chem Biol, 2010).

The target in the test is T1, Alpha-1,2-mannosidase (BT_3858) (Bacteroides thetaiotaomicron) (UniProt Q8A113).
T1 sequence (whole entry): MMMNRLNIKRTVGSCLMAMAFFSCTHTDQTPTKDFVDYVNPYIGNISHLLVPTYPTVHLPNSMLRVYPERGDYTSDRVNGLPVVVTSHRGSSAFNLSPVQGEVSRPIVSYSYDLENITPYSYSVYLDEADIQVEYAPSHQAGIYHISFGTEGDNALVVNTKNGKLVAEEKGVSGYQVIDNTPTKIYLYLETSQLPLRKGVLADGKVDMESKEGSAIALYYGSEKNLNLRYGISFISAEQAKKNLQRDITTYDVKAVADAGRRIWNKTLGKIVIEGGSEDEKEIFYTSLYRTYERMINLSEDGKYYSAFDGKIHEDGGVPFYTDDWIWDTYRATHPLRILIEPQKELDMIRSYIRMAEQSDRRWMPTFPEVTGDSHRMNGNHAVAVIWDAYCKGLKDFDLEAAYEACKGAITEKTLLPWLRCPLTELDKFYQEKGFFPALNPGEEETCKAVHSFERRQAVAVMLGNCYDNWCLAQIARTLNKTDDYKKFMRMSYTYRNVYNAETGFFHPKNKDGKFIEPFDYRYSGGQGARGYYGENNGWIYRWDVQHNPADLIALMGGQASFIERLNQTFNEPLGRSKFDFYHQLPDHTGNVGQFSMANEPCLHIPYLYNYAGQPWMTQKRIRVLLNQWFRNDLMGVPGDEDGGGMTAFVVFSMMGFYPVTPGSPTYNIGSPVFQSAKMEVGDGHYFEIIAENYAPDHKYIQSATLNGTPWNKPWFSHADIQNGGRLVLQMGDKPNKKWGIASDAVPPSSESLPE
Briefly: Activity of Bacteroides thetaiotaomicron GH92 alpha-mannosidase GH92 alpha-mannosidase 3858 assessed as mannose release at 1 mM after 16 hrs by HPLC relative to untreated control after 16 hrs by HPLC. Format: protein assay.

`OC[C@H]1O[C@H](O[C@@H]2[C@H](O)[C@@H](O)O[C@H](CO)[C@H]2O)[C@@H](O)[C@@H](O)[C@@H]1O`: the Activity is 100%.
